# Binding of CDR-mutated scFvs to a peptide of the spike HR2 region

Values reported by Li et al. 2023, doi:10.1038/s41467-023-39022-2 (FLAb copy).

Binding partner: SARS-CoV-2 spike HR2 peptide, sequence PDVDLGDISGINAS.

Each scFv is VH, the linker GGGGSGGGGSGGGGS, VL, as in the parent Ab-14, and differs from it in the CDRs of the heavy chain only.
VH: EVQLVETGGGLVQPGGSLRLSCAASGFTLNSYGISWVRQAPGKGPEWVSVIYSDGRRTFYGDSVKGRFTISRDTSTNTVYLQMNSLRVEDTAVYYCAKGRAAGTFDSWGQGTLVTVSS
VL: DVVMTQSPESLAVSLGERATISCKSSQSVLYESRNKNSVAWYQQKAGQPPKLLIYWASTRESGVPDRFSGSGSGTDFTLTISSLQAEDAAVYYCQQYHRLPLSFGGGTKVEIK

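The starting antibody came from a phage panning campaign against this peptide. The variants were designed computationally from a first round of random CDR variants and then made and measured. Group labels follow the data file (Rand: our label for a block that the file lists under HC and that is probably the random mutants of the ten best first-round binders; En: ensemble of fine-tuned language models; HC: hill climbing; Gen: genetic algorithm; Gibbs: Gibbs sampling; a sequence that several methods proposed may carry one label only). In AlphaSeq, yeast of one mating type display the scFv and yeast of the other type display the target. The frequency of each diploid, read from paired DNA barcodes, reflects how well the two displayed proteins bind. The ratio of observed to expected reads was calibrated, replicate by replicate, on BCL2-family standards whose Kd was known from biolayer interferometry. The assay was run in six technical replicates.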

Variants are written as CDR1, CDR2 and CDR3 of the heavy chain (limits as in the source). Parent: GFTLNSYGIS, VIYSDGRRTFYGDSVK, GRAAGTFDS. Variants here have more than six changes. Values are log10 of the apparent Kd in nM; lower means stronger binding. A mean of the replicates is given; it leaves out those without a signal. A pair that was not seen in any replicate is written "nd"; this usually means weak binding, but a binder can also be missed. Three control strains display no target. For all heavy chain designs, 1% of the pairings with them gave a signal, with a median of 2.08 and one signal in twenty below 0.84, so weak values seen in few replicates may be background.

GFDLDEYGIS, VIYADGSRTAYADSVK, GQVAGTFDV [En_Gen]: -0.65 (6 of 6 replicates).
GKSLNEFGIS, VIYADGVRRAYADDVK, GNAAGHFLS [En_Gibbs]: nd (0 of 6 replicates).
GFDLDEYGIS, VIYADGMRTAYSDSVK, GNVAGTFDL [En_Gen]: -0.54 (6 of 6 replicates).
GFDLDEYGIS, VIYADGMRTAYADSVK, GENAGTFDA [En_Gen]: -0.04 (6 of 6 replicates).
GFDLNEYGIS, VIYADGQRTAYSDSVK, GNQAGTFDI [En_Gen]: -0.23 (6 of 6 replicates).
GFDLQEYGIS, VIYADGARYAYTNSVK, GTQDGSLIV [En_Gibbs]: nd (0 of 6 replicates).
GFGLDEYGIS, VIYADGRRTFYADSVK, GENAGTFVM [En_HC]: 2.72 (1 of 6 replicates).
GFDLNEYGIS, VIYADGRRTAYSDSVK, GEAAGTFDI [En_HC]: 1.03 (6 of 6 replicates).
GFDLNEYGIS, VIYADGRRTAYIDSVK, GHIAGTFDS [En_HC]: -0.68 (6 of 6 replicates).
GFKLEEYGIS, VIYADGIRVFYADSVK, GGFDGYKFI [En_Gibbs]: nd (0 of 6 replicates).
GFDLNEYGIS, VIYADGRRTAYTDSVK, GNAAGTFDV [En_HC]: -0.33 (6 of 6 replicates).
GFDLNEYGIS, VIYADGRRTAYQDSVK, GEVAGTFDS [En_HC]: -0.55 (6 of 6 replicates).
GFDLDEYGIS, VIYADGQRTFYADSVK, GEHAGTFDV [En_HC]: -0.32 (6 of 6 replicates).
GFDLDEYGIS, VIYADGQRTFYADSVK, GTNAGTFDS [En_HC]: -0.66 (6 of 6 replicates).
GFDLNEYGIS, VIYADGMRKYYADSVK, GENAGTFDI [En_Gen]: 0.05 (6 of 6 replicates).
GFDLDEYGIS, VIYADGVREAYIDSVK, GNWSGTDMY [En_Gibbs]: nd (0 of 6 replicates).
GFDLNEYGIS, VIYADGMRTAYADSVK, GQNAGTFDL [En_Gen]: -1.13 (6 of 6 replicates).
GFDLNEYGIS, VIYADGTKTAYANTVK, GKYVGVFVD [En_Gibbs]: 1.52 (4 of 6 replicates).
GFDLDEYGIS, VIYADGKRTFYADSVK, GQNAGTFDV [En_Gen]: -0.38 (6 of 6 replicates).
GFTLNQYGIS, VIYSDGRDVFYSISVK, GRAAGFQDS [Rand]: nd (0 of 6 replicates).
GFDLNEYGIS, VIYADGRRTQYSDSVK, GEVAGTFDA [En_HC]: 0.95 (5 of 6 replicates).
GFDLDEYGIS, VIYADGMRTAYADDVK, GNTAGTFDL [En_Gen]: -0.28 (6 of 6 replicates).
GMDLEEYGIS, VIYADGVRARYANDVK, GQVDAILVV [En_Gibbs]: nd (0 of 6 replicates).
GFDLNEYGIS, VIYADGVRTAYSDNVK, GENAGTFDV [En_Gen]: 0.07 (6 of 6 replicates).
GFDLNEYGIS, VIYADGKRTAYADSVK, GNTAGTFDQ [En_Gen]: -0.52 (6 of 6 replicates).
GFDLNEYGIS, VIYADGQRTAYVDSVK, GNVAGTFDI [En_Gen]: -0.78 (6 of 6 replicates).
GFDLNEYGIS, VIYADGRRTFYSDSVK, GQLAGTFDI [En_HC]: -0.71 (6 of 6 replicates).
GFNLNEYGIS, VIYADGRRTFYSDSVK, GTNGGTFDV [En_HC]: -0.10 (6 of 6 replicates).
GFDLNEYGIS, VIYADGSRTAYADSVK, GNTAGTFDQ [En_Gen]: -0.40 (6 of 6 replicates).
GFGLDEYGIS, VIYADGMRTAYKNSVK, GSFTYVMFV [En_Gibbs]: nd (0 of 6 replicates).
GFDLNEYGIS, VIYADGKRTAYSDSVK, GNVAGTFDI [En_Gen]: -0.36 (6 of 6 replicates).
GFNLNEYGIS, VIYADGKRYEYTDSVK, SGVVGKVLY [En_Gibbs]: nd (0 of 6 replicates).

The closing 4 entries, repeated:

The variant GFDLNEYGIS, VIYADGSRTAYADSVK, GNTAGTFDQ [En_Gen] showed -0.40 (6 of 6 replicates).
The variant GFGLDEYGIS, VIYADGMRTAYKNSVK, GSFTYVMFV [En_Gibbs] showed nd (0 of 6 replicates).
The variant GFDLNEYGIS, VIYADGKRTAYSDSVK, GNVAGTFDI [En_Gen] showed -0.36 (6 of 6 replicates).
The variant GFNLNEYGIS, VIYADGKRYEYTDSVK, SGVVGKVLY [En_Gibbs] showed nd (0 of 6 replicates).

The authors' rule: three or more of the six replicates give a measured affinity, fewer mean a poor binder. Values of this round are not directly comparable with the first-round values of the same sequences.